Results on 37 compounds are retold here after PubChem BioAssay (NCI).

This is a selection; strong and weak results do not stand in their true shares. The source holds several records for some structures; these can differ, active in one and inactive in another. Calls of active or inactive are those of the source. No stated cut-off is given here; in the data, active means growth inhibition above about 70%; inactive means the rest.

The experiment is described as follows: NCI Yeast Anticancer Drug Screen. Data for the rad50 strain (AID 155).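 Further: 0% = growth of vehicle-only cultures of the same strain.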 The settings on record: S. cerevisiae rad50 strain growth inhibition; at 50.0 µM; hits give high values.
In the case of `O=C(O)c1ccccc1[As](=O)(O)O`, the growth inhibition was inactive: 4.05%. In the case of `CC(=O)NC1C(O)OC(CS[As](C)C)C(O)C1O` (configuration not stated), the growth inhibition is inactive: 10.2%. With `CCN(CCCl)Cc1ccc2ccccc2c1`, the growth inhibition was inactive: -0.35%. As for `n1[nH]nc2c1c1n[nH]nc1c1n[nH]nc21`, the figure is inactive: -31.7%; as for `[N-]=[N+]=NC/C(N)=N/O`, inactive: 6.4%. As for `C[N+]1(CCCC[N+]2(C)CCCCCC2)CCCCCC1`, the figure is inactive: -9.3%. Regarding `CCOP(=O)(OCC)OP1OCC(C)(C)CO1`, the growth inhibition was inactive: -25.4%. As for `O=P1(N(CCCl)CCCl)NCCC(C(F)(F)F)O1` (configuration not stated), the figure is inactive: 16.7%; as for `[N-]=[N+]=NCC(O)CN=[N+]=[N-]` (configuration not stated), inactive: 0.9%. Take `COP(OC)c1ccc(C)cc1`: the growth inhibition was inactive: -2%. On to `NCCc1ccc(N(CCCl)CCCl)cc1`, for which the growth inhibition is inactive: 8.5%. The figure for `O=C(O)CCc1ccc(Oc2cc([N+](=O)[O-])c([N+](=O)[O-])c([N+](=O)[O-])c2)cc1` is inactive: 49.5%; for `CN(C)[P+](On1nnc2ccccc21)(N(C)C)N(C)C` it is inactive: 11.6%. As for `O=C(N=Nc1ccc([N+](=O)[O-])cc1[N+](=O)[O-])NNc1ccc([N+](=O)[O-])cc1[N+](=O)[O-]`, the figure is inactive: 27%; as for `N=P(c1ccccc1)(c1ccccc1)c1ccccc1`, inactive: 4.35%; as for `ClP(Cc1ccccc1)Cc1ccccc1`, inactive: -2.3%. With `Cn1c(COC(=O)N(CCCl)CCCl)cnc1S(C)=O` (configuration not stated), the growth inhibition is inactive: -17.9%.

On to `CCOC(=O)NC(c1ccccc1[N+](=O)[O-])P(=O)(O)Nc1ncn[nH]1` (configuration not stated), for which the growth inhibition was inactive: -19%.

`O=P(OCC(O)CO)(Oc1ccccc1)N(CCCl)CCCl` (configuration not stated): the growth inhibition is inactive: 11.5%. As for `CCOP1(=O)N=C(NC2=NC(C(F)(F)F)(C(F)(F)F)N=C(C(F)(F)F)O2)N(C)C1(C)C` (configuration not stated), the figure is inactive: 9.2%; as for `[N-]=[N+]=Nc1ccc([As](=O)(O)O)cc1`, inactive: -8.1%; as for `C[Si](C)(C)CCCNCCCl`, inactive: 45.5%. Regarding `CC(COC(=O)c1cc([N+](=O)[O-])cc([N+](=O)[O-])c1)OC(=O)c1cc([N+](=O)[O-])cc([N+](=O)[O-])c1` (configuration not stated), the growth inhibition is inactive: -5.65%.

With `O=P(NO)(OCc1ccccc1)N(CCCl)CCCl` (configuration not stated), the growth inhibition was inactive: -10.3%. As for `CC1CC[P+](c2ccccc2)(c2ccccc2)Cc2ccccc21` (configuration not stated), the figure is active: 72%; as for `BrP(c1ccccc1)c1ccccc1`, inactive: 6.2%. As for `CC(C)(C)C1CC(C(F)(F)F)(C(F)(F)F)OP(=O)(Cl)O1` (configuration not stated), the figure is inactive: -5.3%. With `Cc1cccc(N[P@]2(Cl)=NP(Cl)(Cl)=N[P@@](Cl)(Nc3cccc(C)c3)=NP(Cl)(Cl)=N2)c1`, the growth inhibition was inactive: -0.4%.

Consider `C/C(=N/Nc1ccc([N+](=O)[O-])cc1[N+](=O)[O-])c1ccc([N+](=O)[O-])cc1`, for which the growth inhibition is inactive: 13.6%.

Turning to `Nc1ccc(P(=O)(Nc2ccccn2)Nc2ccccn2)cc1`, the growth inhibition was inactive: -5%. `CC(/C=C/C(C)=N\Nc1ccc([N+](=O)[O-])cc1[N+](=O)[O-])=N/Nc1ccc([N+](=O)[O-])cc1[N+](=O)[O-]`: the growth inhibition was inactive: -27.5%. As for `CN1C(=O)N(C)P(=O)(c2ccccc2)P1c1ccccc1` (configuration not stated), the figure is inactive: 10.9%; as for `N/C(=N\N=C\c1ccc([N+](=O)[O-])o1)N[N+](=O)[O-]`, inactive: 29.3%. As for `CCCCCCCCCCCCCCCC(=O)OCC(COP(=O)(Oc1ccccc1)N(CCCl)CCCl)OC(=O)CCCCCCCCCCCCCCC` (configuration not stated), the figure is inactive: 2%; as for `[N-]=[N+]=NC(N)=O`, inactive: -4.05%; as for `CCCCOc1ccc(N(CCCl)CCCl)cc1`, inactive: -1.2%. As for `ClC1=C(Cl)C2(Cl)C3C(SC4C3C3(Cl)C(Cl)=C(Cl)C4(Cl)C3(Cl)Cl)C1(Cl)C2(Cl)Cl` (configuration not stated), the figure is inactive: -0.8%.
